Laboratory results from patent publication US20260382613A1, “METHODS OF TREATING ACUTE LEUKEMIA” (published 2026).

Assay: clinical safety and tolerability (TEAEs, SAEs, DLTs, QTc), Phase 1 study
Details: for most common TEAEs ≥Grade 3: 200 or 600 mg
[1] = NPM1-m 600 mg N=20, cutoff 12 Apr 2023
[2] = NPM1-m 600 mg n=20, cutoff 31 Jan 2023

## CNc1nc(NC2CCN(Cc3ccc4c(cc(C#N)n4C[C@H](C)N4CCN(S(C)(=O)=O)CC4)c3C)CC2)c2cc(CC(F)(F)F)sc2n1
200 mg N=23
  Alanine aminotransferase increased, Grade 3 or above TEAE: 2 (8.7) %
  Anemia, Grade 3 or above TEAE: 7 (30.4) %
  Diarrhea, Grade 3 or above TEAE: 0%
  Febrile neutropenia, Grade 3 or above TEAE: 7 (30.4) %
  Hyperglycemia, Grade 3 or above TEAE: 0%
  Hypoxia, Grade 3 or above TEAE: 3 (13.0) %
  Leukocytosis, Grade 3 or above TEAE: 2 (8.7) %
  Neutropenia, Grade 3 or above TEAE: 2 (8.7) %
  Neutrophil count decreased, Grade 3 or above TEAE: 3 (13.0) %
  Patients with Grade 3 or above TEAE: 20 (87.0) %
  Platelet count decreased, Grade 3 or above TEAE: 3 (13.0) %
  Pneumonia, Grade 3 or above TEAE: 5 (21.7) %
  Sepsis, Grade 3 or above TEAE: 5 (21.7) %
  Thrombocytopenia, Grade 3 or above TEAE: 3 (13.0) %
600 mg
  safety profile in NPM1-m AML vs non-NPM1-m AML: more favorable safety profile
600 mg N=41
  Alanine aminotransferase increased, Grade 3 or above TEAE: 3 (7.3) %
  Anemia, Grade 3 or above TEAE: 11 (26.8) %
  Diarrhea, Grade 3 or above TEAE: 4 (9.8) %
  Febrile neutropenia, Grade 3 or above TEAE: 9 (22.0) %
  Hyperglycemia, Grade 3 or above TEAE: 5 (12.2) %
  Hypoxia, Grade 3 or above TEAE: 4 (9.8) %
  Leukocytosis, Grade 3 or above TEAE: 3 (7.3) %
  Neutropenia, Grade 3 or above TEAE: 3 (7.3) %
  Neutrophil count decreased, Grade 3 or above TEAE: 2 (4.9) %
  Patients with Grade 3 or above TEAE: 39 (95.1) %
  Platelet count decreased, Grade 3 or above TEAE: 3 (7.3) %
  Pneumonia, Grade 3 or above TEAE: 6 (14.6) %
  Sepsis, Grade 3 or above TEAE: 4 (9.8) %
  Thrombocytopenia, Grade 3 or above TEAE: 6 (14.6) %
KMT2A-r
  Dose-limiting toxicities: 30.0%
KMT2A-r 200+600 mg N=32
  Alanine aminotransferase increased, Grade 3 or above TEAE: 5 (15.6) %
  Anemia, Grade 3 or above TEAE: 9 (28.1) %
  Diarrhea, Grade 3 or above TEAE: 0%
  Febrile neutropenia, Grade 3 or above TEAE: 9 (28.1) %
  Hyperglycemia, Grade 3 or above TEAE: 2 (6.3) %
  Hypoxia, Grade 3 or above TEAE: 4 (12.5) %
  Leukocytosis, Grade 3 or above TEAE: 4 (12.5) %
  Neutropenia, Grade 3 or above TEAE: 1 (3.1) %
  Neutrophil count decreased, Grade 3 or above TEAE: 2 (6.3) %
  Patients with Grade 3 or above TEAE: 31 (96.9) %
  Platelet count decreased, Grade 3 or above TEAE: 4 (12.5) %
  Pneumonia, Grade 3 or above TEAE: 5 (15.6) %
  Sepsis, Grade 3 or above TEAE: 4 (12.5) %
  Thrombocytopenia, Grade 3 or above TEAE: 3 (9.4) %
KMT2A-r, Ph1a+1b
  most common TEAEs ≥Grade 3: anemia, febrile neutropenia, pneumonia, sepsis, increased alanine aminotransferase, decreased platelet count, and differentiation syndrome
  Pneumonia, SAE in ≥10%: 12.5%
  Sepsis, SAE in ≥10%: 12.5%
NPM1-m
  Dose-limiting toxicities: 14.3%
[1]
  at least one ≥Grade 3 TEAE: 85%
  potentially treatment-related ≥Grade 3 TEAE: 30%
[2]
  Pneumonia, TEAE ≥Grade 3: 20%
  TEAEs considered potentially treatment-related: 30%
  at least one ≥Grade 3 TEAE: 85%
NPM1-m 200+600 mg N=26
  Alanine aminotransferase increased, Grade 3 or above TEAE: 0%
  Anemia, Grade 3 or above TEAE: 7 (26.9) %
  Diarrhea, Grade 3 or above TEAE: 4 (15.4) %
  Febrile neutropenia, Grade 3 or above TEAE: 6 (23.1) %
  Hyperglycemia, Grade 3 or above TEAE: 3 (11.5) %
  Hypoxia, Grade 3 or above TEAE: 3 (11.5) %
  Leukocytosis, Grade 3 or above TEAE: 1 (3.8) %
  Neutropenia, Grade 3 or above TEAE: 4 (15.4) %
  Neutrophil count decreased, Grade 3 or above TEAE: 3 (11.5) %
  Patients with Grade 3 or above TEAE: 23 (88.5) %
  Platelet count decreased, Grade 3 or above TEAE: 1 (3.8) %
  Pneumonia, Grade 3 or above TEAE: 6 (23.1) %
  Sepsis, Grade 3 or above TEAE: 5 (19.2) %
  Thrombocytopenia, Grade 3 or above TEAE: 6 (23.1) %
NPM1-m, Ph1a+1b
  most common TEAEs ≥Grade 3: anemia, neutropenia, thrombocytopenia, diarrhea, pneumonia, sepsis, decreased neutrophil count, decreased white blood cell count, and hyperglycemia
  Clostridium difficile infection, SAE in ≥10%: 11.8%
  Pneumonia, SAE in ≥10%: 11.8%
  Sepsis, SAE in ≥10%: 11.8%
NPM1-m, Ph1b 53 subjects
  ≥Grade 3 TEAEs in >10% of patients: None were reported
Ph1a
  drug-induced QT/QTc prolongation: No drug-induced QT/QTc prolongation was reported
  number of dose-limiting toxicities: Two
Ph1a 50 mg N=1
  Anemia, ≥Grade 3 TEAE (All Causality): 0%
  Decreased appetite, ≥Grade 3 TEAE (All Causality): 0%
  Febrile neutropenia, ≥Grade 3 TEAE (All Causality): 0%
  Neutropenia, ≥Grade 3 TEAE (All Causality): 0%
  Pneumonia, ≥Grade 3 TEAE (All Causality): 1 (100) %
  SAEs (All Causality): 1 (100.0) %
  SAEs (Ziftomenib-Related): 0 (0.0) %
  TEAEs (All Causality): 1 (100.0) %
  Thrombocytopenia, ≥Grade 3 TEAE (All Causality): 0%
  ≥Grade 3 TEAEs (All Causality): 1 (100.0) %
  ≥Grade 3 TEAEs (Ziftomenib-Related): 1 (100.0) %
Ph1a 100 mg N=1
  Anemia, ≥Grade 3 TEAE (All Causality): 0%
  Decreased appetite, ≥Grade 3 TEAE (All Causality): 0%
  Febrile neutropenia, ≥Grade 3 TEAE (All Causality): 0%
  Neutropenia, ≥Grade 3 TEAE (All Causality): 1 (100) %
  Pneumonia, ≥Grade 3 TEAE (All Causality): 0%
  SAEs (All Causality): 1 (100.0) %
  SAEs (Ziftomenib-Related): 1 (100.0) %
  TEAEs (All Causality): 1 (100.0) %
  Thrombocytopenia, ≥Grade 3 TEAE (All Causality): 0%
  ≥Grade 3 TEAEs (All Causality): 1 (100.0) %
  ≥Grade 3 TEAEs (Ziftomenib-Related): 1 (100.0) %
Ph1a 200 mg N=6
  Anemia, ≥Grade 3 TEAE (All Causality): 2 (33.3) %
  Decreased appetite, ≥Grade 3 TEAE (All Causality): 2 (33.3) %
  Febrile neutropenia, ≥Grade 3 TEAE (All Causality): 0%
  Neutropenia, ≥Grade 3 TEAE (All Causality): 1 (16.7) %
  Pneumonia, ≥Grade 3 TEAE (All Causality): 2 (33.3) %
  SAEs (All Causality): 4 (66.7) %
  SAEs (Ziftomenib-Related): 1 (16.7) %
  TEAEs (All Causality): 6 (100.0) %
  Thrombocytopenia, ≥Grade 3 TEAE (All Causality): 1 (16.7) %
  ≥Grade 3 TEAEs (All Causality): 5 (83.3) %
  ≥Grade 3 TEAEs (Ziftomenib-Related): 1 (16.7) %
Ph1a 400 mg
  dose-limiting toxicity: pneumonitis
Ph1a 400 mg N=5
  Anemia, ≥Grade 3 TEAE (All Causality): 1 (20.0) %
  Decreased appetite, ≥Grade 3 TEAE (All Causality): 0%
  Febrile neutropenia, ≥Grade 3 TEAE (All Causality): 1 (20.0) %
  Neutropenia, ≥Grade 3 TEAE (All Causality): 0%
  Pneumonia, ≥Grade 3 TEAE (All Causality): 1 (20.0) %
  SAEs (All Causality): 4 (80.0) %
  SAEs (Ziftomenib-Related): 1 (20.0) %
  TEAEs (All Causality): 5 (100.0) %
  Thrombocytopenia, ≥Grade 3 TEAE (All Causality): 1 (20.0) %
  ≥Grade 3 TEAEs (All Causality): 4 (80.0) %
